Assay results published in ChEMBL document CHEMBL1124535, “Highly selective kappa-opioid analgesics. 2. Synthesis and structure-activity relationships of novel N-[(2-aminocyclohexyl)aryl]acetamide derivatives” (1989).

Protein sequences, listed by entry. Tags and fused reporters are not part of them. Lines headed by an entry give the natural chain unless they say otherwise; changes in a name come on top.
UniProt P35372, whole entry, looked up: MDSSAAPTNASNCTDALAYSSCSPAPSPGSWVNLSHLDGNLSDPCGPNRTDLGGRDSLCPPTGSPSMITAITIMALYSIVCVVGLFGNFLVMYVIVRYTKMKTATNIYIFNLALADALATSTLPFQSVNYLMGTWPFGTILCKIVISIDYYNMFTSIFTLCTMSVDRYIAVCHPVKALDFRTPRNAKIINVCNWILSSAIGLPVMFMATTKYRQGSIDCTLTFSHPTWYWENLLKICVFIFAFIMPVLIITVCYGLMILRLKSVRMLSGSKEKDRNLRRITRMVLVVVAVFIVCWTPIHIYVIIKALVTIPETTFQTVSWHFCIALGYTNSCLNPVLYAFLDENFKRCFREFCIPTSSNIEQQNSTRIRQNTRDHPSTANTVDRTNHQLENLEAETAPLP
UniProt P41145: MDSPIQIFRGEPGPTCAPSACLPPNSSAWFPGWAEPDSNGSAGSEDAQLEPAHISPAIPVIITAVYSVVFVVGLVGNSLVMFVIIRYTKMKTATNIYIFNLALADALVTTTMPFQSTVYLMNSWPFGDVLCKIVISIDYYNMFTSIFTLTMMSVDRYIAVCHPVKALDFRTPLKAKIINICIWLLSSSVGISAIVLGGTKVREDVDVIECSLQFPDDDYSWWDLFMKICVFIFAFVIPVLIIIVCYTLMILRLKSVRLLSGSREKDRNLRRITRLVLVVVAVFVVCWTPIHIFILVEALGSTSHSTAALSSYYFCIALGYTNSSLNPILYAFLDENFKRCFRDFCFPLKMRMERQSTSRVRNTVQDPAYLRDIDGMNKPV

Legend:
Mu-type opioid receptor [1] = target: T1, Mu-type opioid receptor (Homo sapiens, UniProt P35372); test: Binding affinity towards opioid receptor mu was determined
[2] = target: T2, Kappa-type opioid receptor (Homo sapiens, UniProt P41145); test: Binding affinity towards opioid receptor kappa was determined
Rattus norvegicus = organism: Rattus norvegicus; test: Dose required to produce 50% of the maximum possible analgesic effect by using rat paw pressure analgesia assay
[3] = target: T2, Kappa-type opioid receptor; test: Binding affinity towards Opioid receptor kappa 1 was determined
Mu-type opioid receptor [4] = target: T1, Mu-type opioid receptor; test: Binding affinity towards Opioid receptor mu 1 was determined
Mu-type opioid receptor [5] = target: T1, Mu-type opioid receptor; test: Binding affinity towards mu opioid receptor was determined

Row | Structure (SMILES) | Ki (Mu-type opioid receptor [1]) | Ki [2] | also measured
1 | CN(C(=O)Cc1cccc2sccc12)[C@@H]1CCCC[C@H]1N1CCC[C@H]1CO | > 0.1 µM | > 1 µM | –
2 | CN(C(=O)Cc1csc2ccccc12)[C@@H]1CCCC[C@H]1N1CCCC1.Cl | – | – | MPE50 (Rattus norvegicus): 3.3 mg/kg
3 | CN(C(=O)Cc1cccc2ccsc12)[C@@H]1CCCC[C@H]1N1CCCC1 | 0.65 µM | 0.017 µM | –
4 | CO[C@H]1C[C@H](N(C)C(=O)Cc2cccc3occc23)[C@@H](N2CCCC2)C[C@H]1OC.Cl | – | – | MPE50 (Rattus norvegicus): 0.8 mg/kg
5 | CN(C(=O)Cc1cccc2sccc12)[C@@H]1CCCC[C@H]1N1CCC(CO)C1.Cl (stereo partly drawn) | – | – | MPE50 (Rattus norvegicus): >3.3 mg/kg
6 | CN(C(=O)Cc1csc2ccccc12)[C@@H]1CCCC[C@H]1N1CCCC1 | – | – | Ki [3]: 0.069 µM; Ki (Mu-type opioid receptor [4]): 1.4 µM
7 | CN(C(=O)Cc1ccc2ccsc2c1)[C@@H]1CCCC[C@H]1N1CCCC1 | 0.425 µM | 0.146 µM | –
8 | CN(CCc1cccc2sccc12)[C@@H]1CCCC[C@H]1N1CCCC1 | 14.3 µM | 8.1 µM | –
9 | CN(C(=S)Cc1cccc2sccc12)[C@@H]1CCCC[C@H]1N1CCCC1 | – | – | Ki [3]: 0.053 µM; Ki (Mu-type opioid receptor [5]): 0.7 µM
10 | CO[C@H]1C[C@H](N(C)C(=O)Cc2cccc3sccc23)[C@@H](N2CCCC2)C[C@H]1OC.Cl | – | – | MPE50 (Rattus norvegicus): 1.5 mg/kg
11 | CO[C@H]1C[C@H](N(C)C(=O)Cc2cccc3occc23)[C@@H](N2CCCC2)C[C@H]1OC | – | – | Ki [3]: 0.016 µM; Ki (Mu-type opioid receptor [5]): 0.82 µM
12 | CN(C(=O)Cc1cccc2sccc12)[C@@H]1CCC[C@H]1N1CCCC1 | 3.6 µM | 0.154 µM | –
13 | CN(C(=O)Cc1cccc2[nH]ccc12)[C@@H]1CCCC[C@H]1N1CCCC1 | 0.833 µM | 0.816 µM | –
14 | CN(C(=O)Cc1ccc2sccc2c1)[C@@H]1CCCC[C@H]1N1CCCC1 | 0.475 µM | 0.094 µM | –
15 | O=C(Cc1cccc2sccc12)N[C@@H]1CCCC[C@H]1N1CCCC1 | – | – | Ki [3]: 0.333 µM; Ki (Mu-type opioid receptor [5]): 4.8 µM
16 | Cl.O=C(Cc1cccc2sccc12)O[C@@H]1CCCC[C@H]1N1CCCC1 | – | – | MPE50 (Rattus norvegicus): >3.3 mg/kg
17 | CN(C(=O)Cc1cccc2sccc12)[C@@H]1CCCC[C@H]1N1CCCC1.Cl | – | – | MPE50 (Rattus norvegicus): 1.4 mg/kg

Row | Structure (SMILES) | Ki (Mu-type opioid receptor [1]) | Ki [2] | also measured
18 | CN(C(=O)Cc1ccc2sccc2c1)[C@@H]1CCCC[C@H]1N1CCCC1.Cl | – | – | MPE50 (Rattus norvegicus): 6.1 mg/kg
19 | O=C(Cc1cccc2sccc12)N1CC2CCCN2[C@@H]2CCCC[C@H]21 (stereo partly drawn) | – | – | Ki [3]: 28 µM; Ki (Mu-type opioid receptor [5]): 17.5 µM
20 | O=C(Cc1cccc2sccc12)NCCN1CCCC1 | 10 µM | 25 µM | –
21 | O=C(Cc1cccc2sccc12)O[C@@H]1CCCC[C@H]1N1CCCC1 | 3.34 µM | 0.261 µM | –
22 | CN(C(=O)Cc1cccc2sccc12)[C@@H]1CCCC[C@H]1N1CCC[C@@H]1CO | > 10 µM | > 10 µM | –
23 | CN(C(=O)Cc1cccc2occc12)[C@@H]1CCCC[C@H]1N1CCC(COC(=O)CCCC(=O)OCC2CCN([C@H]3CCCC[C@@H]3N(C)C(=O)Cc3cccc4occc34)C2)C1 (stereo partly drawn) | 0.76 µM | 0.18 µM | –
24 | CN(C(=O)Cc1ccc2ccsc2c1)[C@@H]1CCCC[C@H]1N1CCCC1.Cl | – | – | MPE50 (Rattus norvegicus): 4.6 mg/kg
25 | CCCCCN(CCN1CCCC1)C(=O)Cc1cccc2sccc12 | 5.2 µM | 2 µM | –
26 | CN(C(=O)Cc1cccc2sccc12)[C@@H]1CCCC[C@H]1N1CCC(CO)C1 (stereo partly drawn) | 0.56 µM | 0.007 µM | –
27 | CN(C(=O)Cc1cccc2sccc12)[C@@H]1CCCCC[C@H]1N1CCCC1 | – | – | Ki [3]: 0.012 µM; Ki (Mu-type opioid receptor [5]): 1 µM
28 | CN(Cc1cccc2occc12)C(=O)[C@@H]1CCCC[C@H]1N1CCCC1 | – | – | Ki [3]: 37 µM; Ki (Mu-type opioid receptor [5]): 20.3 µM
29 | CO[C@H]1C[C@H](N(C)C(=O)Cc2cccc3sccc23)[C@@H](N2CCCC2)C[C@H]1OC | 2.8 µM | 0.018 µM | –
30 | CN(C(=O)Cc1cccc2occc12)[C@@H]1CCCC[C@H]1N1CCC(COC(=O)CCC(=O)OCC2CCN([C@H]3CCCC[C@@H]3N(C)C(=O)Cc3cccc4occc34)C2)C1 (stereo partly drawn) | 0.8 µM | 0.18 µM | –
31 | CN(C(=O)Cc1cccc2ccsc12)[C@@H]1CCCC[C@H]1N1CCCC1.Cl | – | – | MPE50 (Rattus norvegicus): >3.3 mg/kg
32 | CN(C(=O)Cc1cccc2occc12)[C@@H]1CCCC[C@H]1N1CCC(CO)C1 (stereo partly drawn) | – | – | Ki [3]: 0.017 µM; Ki (Mu-type opioid receptor [5]): 4.1 µM
33 | CN(C(=O)Cc1cccc2occc12)[C@@H]1CCCC[C@H]1N1CCC(CO)C1.Cl (stereo partly drawn) | – | – | MPE50 (Rattus norvegicus): 4 mg/kg
34 | CN(C(=O)Cc1cccc2sccc12)[C@@H]1CCCC[C@H]1N1CCCC1 | 0.41 µM | 0.0037 µM | –
